Marks after values point to notes of the source that are not given here.
Experiments:
Type in all cases: cell-based, human
SK-BR-3 cells = test: In vitro cell viability assay (CellTiter-Glo, 6 days), SK-BR-3; conditions: HER2-positive SK-BR-3 cells; trastuzumab DAR8-conjugates
Protocol: (§1) FaDu, BxPC-3, HeLa, MV4-11, and RAJI cell lines were obtained from Deutsche Sammlung von Mikroorganismen und Zellkulturen ([…], Germany). Jurkat NucLight Red cells were obtained from Essen BioScience Inc. (Ann Arbor, MI, USA). SK-BR-3 and SK-OV-3 cells were cultured in McCoys 5A medium (Lonza; Walkersville, MD, USA) supplemented with 10% v/w Fetal Bovine Serum (FBS), Heat-inactivated (HI) (Gibco-Life Technologies; Carlsbad, CA) and 80 U/mL Pen/Strep (Gibco-Life Technologies), at 37° C. in a humidified incubator under 5% CO2 atmosphere. SW-620 cells were similarly maintained in RPMI 1640 medium (Lonza), containing 10% v/w FBS HI and 80 U/mL Pen/Strep. A-549 cells were similarly maintained in F-12K Nutrient Mixture (1×) (Gibco-Life Technologies) media supplemented with 80 U/mL Pen/Strep and 5% v/w FBS, which was Qualified (Q) (Gibco-Life Technologies). BT-474 and AU-565 cells were similarly maintained in RPMI 1640 medium (Lonza), containing 10% v/w FBS, which was Qualified (Q) (Gibco-Life Technologies), and 80 U/mL Pen/Strep. […] Jurkat NucLight Red cells were similarly maintained in RPMI 1640 medium (Lonza), containing 10% v/w FBS HI, 80 U/mL Pen/Strep and 0.5 μg/mL Puromycin (Gibco-Life Technologies). FaDu cells were cultured in EMEM medium (Lonza) supplemented with 10% v/w FBS HI (Gibco-Life Technologies), 1× GlutaMAX (Gibco-Life Technologies), and 80 U/mL Pen/Strep (Gibco-Life Technologies), at 37° C. in a humidified incubator under 5% CO2 atmosphere.
(§2) After an overnight incubation, 10 serial log 10 dilutions of the free drugs were made in DMSO (Sigma-Aldrich). These free drug dose-response curves were 10-times further diluted in complete growth medium. For the ADCs according to the invention 10 serial log 10 dilutions were made in complete growth medium. 10 μL of a composition comprising a free drug or an ADC according to the invention was added to the assay plate (final DMSO content for free drugs was 1%). […] Cell viability was assessed after 6 days using a luminescent assay kit (CellTiter-Glo™ (CTG), Promega Corporation) according to the manufacturer's instructions. Percentage cell survival was calculated by dividing the measured luminescence for each free drug or ADC according to the concentration with the average mean of untreated cells (1% or 0.1% DMSO control (for free drugs) or 100% complete growth medium (for ADCs)) multiplied by 100.
(§3) Curves were fitted by non-linear regression using the sigmoidal dose-response equation with variable slope (four parameters) using curve-fitting software (GraphPad Prism, version 9.4.0 for Windows, GraphPad, San Diego, CA or Electronic Laboratory Notebook (ELN) add-in BioAssay, version 19.1.0.0218, Perkin Elmer, Waltham, MA). Relative IC50 values were calculated as the concentration that gives a response halfway between bottom and top of the curve, when using a 4-parameter logistic fit. Data were reported as mean IC50 value of at least one experiment performed in duplicate.

AU-565 cells = test: In vitro cell viability assay (CellTiter-Glo, 6 days), AU-565; conditions: ADC
Protocol: as §1, §2, §3

SW-620 cells = test: In vitro cell viability assay (CellTiter-Glo, 6 days), SW-620; conditions: ADC; Table 3a; HER2-negative cell line
Protocol: (§4) Human tumor cell lines SK-BR-3, SW-620, A-549, BT-474, Jurkat Clone E6-1, AU-565, and SK-OV-3 were obtained from American Type Culture Collection (Rockville, MD, USA). FaDu, BxPC-3, HeLa, MV4-11, and RAJI cell lines were obtained from Deutsche Sammlung von Mikroorganismen und Zellkulturen ([…], Germany). Jurkat NucLight Red cells were obtained from Essen BioScience Inc. (Ann Arbor, MI, USA). SK-BR-3 and SK-OV-3 cells were cultured in McCoys 5A medium (Lonza; Walkersville, MD, USA) supplemented with 10% v/w Fetal Bovine Serum (FBS), Heat-inactivated (HI) (Gibco-Life Technologies; Carlsbad, CA) and 80 U/mL Pen/Strep (Gibco-Life Technologies), at 37° C. in a humidified incubator under 5% CO2 atmosphere. SW-620 cells were similarly maintained in RPMI 1640 medium (Lonza), containing 10% v/w FBS HI and 80 U/mL Pen/Strep. A-549 cells were similarly maintained in F-12K Nutrient Mixture (1×) (Gibco-Life Technologies) media supplemented with 80 U/mL Pen/Strep and 5% v/w FBS, which was Qualified (Q) (Gibco-Life Technologies). BT-474 and AU-565 cells were similarly maintained in RPMI 1640 medium (Lonza), containing 10% v/w FBS, which was Qualified (Q) (Gibco-Life Technologies), and 80 U/mL Pen/Strep. Jurkat Clone E6-1, BxPC-3, HeLa, MV4-11, and RAJI cells were similarly maintained in RPMI 1640 medium (Lonza), containing 10% v/w FBS HI and 80 U/mL Pen/Strep. Jurkat NucLight Red cells were similarly maintained in RPMI 1640 medium (Lonza), containing 10% v/w FBS HI, 80 U/mL Pen/Strep and 0.5 μg/mL Puromycin (Gibco-Life Technologies). FaDu cells were cultured in EMEM medium (Lonza) supplemented with 10% v/w FBS HI (Gibco-Life Technologies), 1× GlutaMAX (Gibco-Life Technologies), and 80 U/mL Pen/Strep (Gibco-Life Technologies), at 37° C. in a humidified incubator under 5% CO2 atmosphere.
as §2, with “Cells in complete growth medium were plated in 96-well plates (90 μL/well) and incubated at 37° C., 5% CO2 at the following cell densities: 6500 SK-BR-3, 4000 SW-620, 2500 A-549, 10000 BT-474, 3000 Jurkat Clone E6-1, 5000 AU-565, 1250 FaDu, 1250 BxPC-3, 1000 HeLa, 7500 MV4-11, 1000 RAJI, 3000 Jurkat NucLight Red, and 4000 SK-OV-3 cells per well. After” for “After”
as §3

BxPC-3 cells = test: In vitro cell viability assay (CellTiter-Glo, 6 days), BxPC-3; conditions: ADC; Table 3b; BioAssay software
Protocol: (§5) FaDu, BxPC-3, HeLa, MV4-11, and RAJI cell lines were obtained from Deutsche Sammlung von Mikroorganismen und Zellkulturen ([…], Germany). Jurkat NucLight Red cells were obtained from Essen BioScience Inc. (Ann Arbor, MI, USA). SK-BR-3 and SK-OV-3 cells were cultured in McCoys 5A medium (Lonza; Walkersville, MD, USA) supplemented with 10% v/w Fetal Bovine Serum (FBS), Heat-inactivated (HI) (Gibco-Life Technologies; Carlsbad, CA) and 80 U/mL Pen/Strep (Gibco-Life Technologies), at 37° C. in a humidified incubator under 5% CO2 atmosphere. SW-620 cells were similarly maintained in RPMI 1640 medium (Lonza), containing 10% v/w FBS HI and 80 U/mL Pen/Strep. […]
(§6) After an overnight incubation, 10 serial log 10 dilutions of the free drugs were made in DMSO (Sigma-Aldrich). […] Cell viability was assessed after 6 days using a luminescent assay kit (CellTiter-Glo™ (CTG), Promega Corporation) according to the manufacturer's instructions. Percentage cell survival was calculated by dividing the measured luminescence for each free drug or ADC according to the concentration with the average mean of untreated cells (1% or 0.1% DMSO control (for free drugs) or 100% complete growth medium (for ADCs)) multiplied by 100. […]

FaDu cells = test: In vitro cell viability assay (CellTiter-Glo, 6 days), FaDu; conditions: ADC; Table 3b; BioAssay software
Protocol: as §5, §6

[1] = test system: Jurkat NucLight Red cells; test: In vitro cell viability assay (CellTiter-Glo, 6 days), Jurkat NucLight Red; conditions: ADC, Table 3c; for Jurkat NucLight Red cells IC50: BioAssay software; for Jurkat NucLight Red cells Efficacy: from minimum % viability at highest concentration
Protocol: as §4
as §2, with “Cells in complete growth medium were plated in 96-well plates (90 μL/well) and incubated at 37° C., 5% CO2 at the following cell densities: 6500 SK-BR-3, 4000 SW-620, 2500 A-549, 10000 BT-474, 3000 Jurkat Clone E6-1, 5000 AU-565, 1250 FaDu, 1250 BxPC-3, 1000 HeLa, 7500 MV4-11, 1000 RAJI, 3000 Jurkat NucLight Red, and 4000 SK-OV-3 cells per well. After” for “After”
as §3

BT-474 cells = test: In vitro cell viability assay (CellTiter-Glo, 6 days), BT-474; conditions: ADC; Table 3b; BioAssay software
Protocol: as §5, §6

SK-OV-3 cells = test: In vitro cell viability assay (CellTiter-Glo, 6 days), SK-OV-3; conditions: ADC; Table 3a
Protocol: as §5, §6

| Substance | cytotoxicity compared with trastuzumab-XT17 DAR8 (SK-BR-3 cells) | SW-620 cells Efficacy (SW-620 cells) [%] | SW-620 cells IC50 (SW-620 cells) [µg/mL] | also measured |
| --- | --- | --- | --- | --- |
| trastuzumab-XT114 | more active |  |  | AU-565 cells IC50 (AU-565 cells; Table 3a, later experiment, direct comparison between DAR8-XX23 and DAR8-XT114): 0.008 µg/mL |
| Trastuzumab conjugate DAR8 - XR4 wild-type conjugation |  | 0 | >10 |  |
| trastuzumab-XT41 | more active | 0 | >10 |  |
| Trastuzumab conjugate DAR8 - XT31/XT32 wild-type conjugation |  | 0 | >10 |  |
| trastuzumab-XT94 | more active |  |  | AU-565 cells IC50 (AU-565 cells; Table 3a): ~0.027^$ μg/mL |
| trastuzumab-XT46 | somewhat less active | 0 | >10 |  |
| Trastuzumab conjugate DAR4 - XT17 wild-type conjugation |  | 0 | >10 |  |
| trastuzumab-XT123 | more active |  |  | BxPC-3 cells IC50 (BxPC-3 cells): >10^# μg/mL; FaDu cells IC50 (FaDu cells): 6.639 µg/mL; AU-565 cells IC50 (AU-565 cells; Table 3b, BioAssay software): 0.010 µg/mL; Jurkat NucLight Red cells IC50 [1]: >10^# μg/mL; Jurkat NucLight Red cells Efficacy [1]: 4% |
| trastuzumab-XT162 | more active |  |  | BxPC-3 cells IC50 (BxPC-3 cells): >10^# μg/mL; FaDu cells IC50 (FaDu cells): >10^# μg/mL; AU-565 cells IC50 (AU-565 cells; Table 3b, BioAssay software): 0.018 µg/mL; Jurkat NucLight Red cells IC50 [1]: >10^# μg/mL; Jurkat NucLight Red cells Efficacy [1]: 0% |
| Trastuzumab conjugate DAR8 - XT100 wild-type conjugation |  |  |  | AU-565 cells IC50 (AU-565 cells; Table 3a): 0.024 µg/mL |
| Trastuzumab conjugate DAR8 - XT16 wild-type conjugation |  | 0 | >10 |  |
| trastuzumab-XG2 | more active |  |  | BT-474 cells IC50 (BT-474 cells): 0.036 µg/mL; AU-565 cells IC50 (AU-565 cells; Table 3b, BioAssay software): 0.015 µg/mL; Jurkat NucLight Red cells IC50 [1]: >10^# μg/mL; Jurkat NucLight Red cells Efficacy [1]: 5% |
| trastuzumab-XR16 | more active |  |  |  |
| Trastuzumab conjugate DAR8 - XJ9 wild-type conjugation |  |  |  | AU-565 cells IC50 (AU-565 cells; Table 3a): 0.032 µg/mL |
| Trastuzumab conjugate DAR8 - XS23 wild-type conjugation |  | 0 | >10 | SK-OV-3 cells IC50 (SK-OV-3 cells): ~1.137^# μg/mL |
| Trastuzumab conjugate DAR8 - XT54 wild-type conjugation |  | 0 | >10 |  |
| trastuzumab-XR12 | somewhat less active |  |  |  |
| Trastuzumab conjugate DAR8 - XT97 wild-type conjugation |  |  |  | AU-565 cells IC50 (AU-565 cells; Table 3a): 0.042 µg/mL |
| trastuzumab-XX19 | more active |  |  |  |
| trastuzumab-XX23 | more active |  |  |  |
| Trastuzumab conjugate DAR2 - XT17 wild-type conjugation |  | 0 | >10 |  |

Source: patent US20250114466A1, “ANTIFOLATE LINKER-DRUGS AND ANTIBODY-DRUG CONJUGATES” (BYONDIS B.V., priority 2021, published 2025)
